Only a part is listed here, and it is no random draw. The source made the active and inactive calls.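 The calls were made as follows: active = B-score over 3 SD under the library average, no early fluorescence shift, positive overall ratio signal; inactive = the rest.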

Protein sequences, listed by entry. Tags and fused reporters are not part of them.
UniProt Q9QUQ5, whole entry: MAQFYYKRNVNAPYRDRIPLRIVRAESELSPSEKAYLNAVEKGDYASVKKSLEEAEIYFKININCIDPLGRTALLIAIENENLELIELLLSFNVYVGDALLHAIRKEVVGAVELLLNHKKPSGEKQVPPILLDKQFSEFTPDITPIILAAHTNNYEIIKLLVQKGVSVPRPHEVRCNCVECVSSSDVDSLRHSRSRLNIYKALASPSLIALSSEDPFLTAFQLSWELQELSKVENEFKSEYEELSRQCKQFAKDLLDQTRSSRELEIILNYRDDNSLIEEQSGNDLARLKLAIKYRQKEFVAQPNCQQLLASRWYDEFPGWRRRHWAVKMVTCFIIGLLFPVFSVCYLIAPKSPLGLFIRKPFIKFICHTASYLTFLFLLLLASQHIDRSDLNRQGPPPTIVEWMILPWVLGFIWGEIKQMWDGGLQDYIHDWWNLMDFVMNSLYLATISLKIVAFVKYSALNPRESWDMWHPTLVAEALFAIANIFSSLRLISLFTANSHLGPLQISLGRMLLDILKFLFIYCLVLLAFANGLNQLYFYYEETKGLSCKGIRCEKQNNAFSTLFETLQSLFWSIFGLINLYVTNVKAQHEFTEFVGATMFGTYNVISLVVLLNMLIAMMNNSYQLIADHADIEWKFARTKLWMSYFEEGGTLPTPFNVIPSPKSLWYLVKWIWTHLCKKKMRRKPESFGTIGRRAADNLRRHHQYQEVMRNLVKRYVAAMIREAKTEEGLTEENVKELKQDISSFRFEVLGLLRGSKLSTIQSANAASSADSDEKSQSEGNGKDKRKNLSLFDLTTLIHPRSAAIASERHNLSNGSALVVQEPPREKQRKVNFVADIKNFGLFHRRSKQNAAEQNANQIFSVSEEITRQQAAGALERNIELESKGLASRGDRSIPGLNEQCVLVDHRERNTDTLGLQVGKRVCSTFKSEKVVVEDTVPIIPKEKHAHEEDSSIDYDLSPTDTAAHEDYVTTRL

This experiment addresses Short transient receptor potential channel 4 (Mus musculus) (UniProt Q9QUQ5). The experiment can be described thus: inhibitors of mouse TRPC4 channel, primary screen, Fluo4 calcium, HEK293 TRPC4beta/mu-opioid cells (AID 2247). The note with it: DAMGO-evoked Fluo4 calcium flux, at 10 µM; active compounds read low.
`CCOC(=O)N1CCC(Nc2cccc(C)c2)CC1`: the outcome was inactive.

As for `COc1cc(C(=O)NCC2(N(C)C)CCCCC2)ccc1OC(F)F`, the B-score is active: -5.

Turning to `Cc1ccc(OCC(C)C)c(CN(CCCl)CCCl)c1`, the result was inactive.

Consider `O=C(NCC1(N2CCCCC2)CCCCC1)c1ccc(F)cc1`, for which the result was inactive.

In the case of `COc1ccc(NC2CCN(CCc3ccccc3)CC2)c(OC)c1`, the outcome was inactive.

For `CCOC(=O)N1CCC(Nc2ccc(F)cc2)CC1`, the result was inactive.

For the compound `CCOc1ccc(C)cc1CN(CCCl)CCCl`, the outcome was inactive.

Regarding `N#CC1(Nc2ccccc2)CCN(Cc2ccccc2)CC1`, the outcome was inactive.

`O=C(OC1CN2CCC1CC2)C1c2ccccc2Oc2ccccc21` (centres undefined): the outcome was inactive.

With `CCOC(=O)N1CCC(Nc2ccc(OC)cc2)CC1`, the result was inactive.

For the compound `O=C(NCC1(N2CCCCC2)CCCCC1)c1ccc(Cl)nc1`, the result was inactive.

As for `Cc1cc(C)cc(N(C(=O)c2ccccc2)C2CCN(C(=O)OC(C)(C)C)CC2)c1`, the outcome was inactive.

`O=C(NCC1(N2CCOCC2)CCCCC1)c1cc2ccccc2o1`: the result was inactive.

As to `CSc1ccccc1C(=O)NCC1(N2CCCCC2)CCCCC1`, the outcome was inactive.

In the case of `COc1ccc(C(=O)NCC2(N3CCCCC3)CCCCC2)cc1`, the outcome was inactive.

Turning to `CC(C)(C)OC(=O)N1CCC(N(C(=O)c2ccccc2)c2ccc(F)cc2)CC1`, the outcome was inactive.

Consider `COc1ccc(C(=O)NCC2(N3CCCCC3)CCCCC2)c(OC)c1OC`, for which the outcome was inactive.

For `O=C(NCC1(N2CCCCC2)CCCCC1)c1ccc(=O)[nH]c1`, the result was inactive.

For the compound `O=C(NCC1(N2CCCCC2)CCCCC1)c1cccs1`, the result was inactive.

Consider `CCCOc1ccc(C(=O)NCC2(N(C)C)CCCCC2)cc1OC`, for which the outcome was inactive.

As for `CN1CCC(Nc2cccc(F)c2)CC1`, the result was inactive.

For the compound `COc1cc(OC)c(C(=O)NCC2(N(C)C)CCCCC2)cc1OC`, the outcome was inactive.

`CC(C)c1ccc(NC2CCN(C(=O)OC(C)(C)C)CC2)cc1`: the outcome was inactive.

`COc1ccc(CN(CCCl)CCCl)cc1Cl`: the result was inactive.

For the compound `CN(C)c1cccc(C(=O)NCC2(N3CCCCC3)CCCCC2)c1`, the outcome was inactive.

On to `COc1cc(C(=O)NCC2(N3CCCCC3)CCCCC2)ccc1OC(F)F`, for which the result was inactive.

Regarding `O=C(NCC1(N2CCOCC2)CCCCC1)c1cc(=O)[nH]c2ccccc12`, the outcome was inactive.

With `CN1CCN(CCOC(=O)C(O)(c2ccccc2)c2ccccc2)CC1`, the outcome was inactive.

For `COc1ccc(NC2CCN(C(=O)OC(C)(C)C)CC2)cc1`, the result was inactive.

On to `O=C(NCC1(N2CCCCC2)CCCCC1)c1cccc(C(F)(F)F)c1`, for which the result was inactive.

Turning to `CCN1CCC(Nc2ccc(Cl)cc2)CC1`, the outcome was inactive.

On to `N#CC1(Nc2ccccc2)CCN(CCc2ccccc2)CC1`, for which the result was inactive.

For the compound `O=C(NCC1(N2CCCCC2)CCCCC1)c1cccc([N+](=O)[O-])c1`, the result was inactive.

For `O=C(NCC1(N2CCCCC2)CCCCC1)c1ccc(OC(F)F)cc1`, the outcome was inactive.

Regarding `CN(C)C1(CNC(=O)c2cccc(C#N)c2)CCCCC1`, the outcome was inactive.

Consider `c1ccc(CN2CCC(Nc3ccccc3)CC2)cc1`, for which the result was inactive.

`CCCN1CCC(Nc2cc(OC)cc(OC)c2)CC1`: the result was inactive.

Turning to `N#Cc1ccc(C(=O)NCC2(N3CCCCC3)CCCCC2)cc1`, the result was inactive.

On to `CC(C)(C)OC(=O)N1CCC(N(C(=O)c2ccccc2)c2ccc(Cl)cc2)CC1`, for which the result was inactive.

For the compound `CCc1cc(C(=O)NCC2(N3CCCCC3)CCCCC2)sc1C`, the outcome was inactive.

Turning to `O=C(OC1CN2CCC1CC2)C1c2ccccc2C=Cc2ccccc21` (centres undefined), the result was inactive.

For the compound `CCOC(=O)N1CCC(Nc2ccc(C)cc2)CC1`, the result was inactive.

Consider `N/C(=N\O)c1c(N)no[n+]1[O-]`, for which the outcome was inactive.

For `COc1ccc(C(=O)NCC2(N3CCOCC3)CCCCC2)cc1OC`, the result was inactive.

Take `CN1CCC(Nc2ccc(Cl)cc2)CC1`: the outcome was inactive.

For `CCCOc1ccc(C)cc1CN(CCCl)CCCl`, the result was inactive.

Regarding `COc1cc(OC)cc(C(=O)NCC2(N3CCOCC3)CCCCC2)c1`, the result was inactive.

For `COc1cccc(C(=O)N(c2cc(C)cc(C)c2)C2CCN(C(=O)OC(C)(C)C)CC2)c1`, the outcome was inactive.

With `CCC(CO)(C(=O)OC1CN2CCC1CC2)c1ccccc1` (centres undefined), the outcome was inactive.

On to `CC(C)(C)OC(=O)N1CCC(Nc2ccccc2)CC1`, for which the result was inactive.

`O=C(O)C1(Nc2ccccc2)CCN(Cc2ccccc2)CC1`: the result was inactive.

Regarding `CCCOc1ccc(C(=O)NCC2(N(C)C)CCCCC2)cc1`, the result was inactive.

With `CCOc1ncccc1C(=O)NCC1(N2CCOCC2)CCCCC1`, the result was inactive.

As to `CN1CCC(Nc2ccc(F)c(Cl)c2)CC1`, the result was inactive.

Turning to `CN(C)c1ccc(C(=O)NCC2(N3CCCCC3)CCCCC2)cc1`, the result was inactive.

On to `CCN1CCC(Nc2cccc(F)c2)CC1`, for which the outcome was inactive.

Consider `Cc1ccc(C(=O)NCC2(N3CCCCC3)CCCCC2)o1`, for which the outcome was inactive.

`Fc1ccccc1NC1CCN(Cc2ccccc2)CC1`: the outcome was inactive.

Regarding `COc1cc(OC)cc(C(=O)NCC2(N3CCCCC3)CCCCC2)c1`, the result was inactive.

Source of the values: PubChem BioAssay AID2247 (Johns Hopkins Ion Channel Center, 2010).
